We go through one compound from PubChem BioAssay AID602210 (Sanford-Burnham Center for Chemical Genomics, 2012).

The assay can be described thus: modulators of 2-deoxyglucose-induced H9c2 death, dose response, myocardial damage modulator project, cell-based, ATPlite luminescence, rat, set 2 (AID 602210). The note with it: H9c2 rat cardiomyoblasts, 2-deoxyglucose-induced death, 2 h.

Calls of active or inactive are those of the source. No rule for the calls is given here.

The IC50 is the concentration that gives 50% inhibition. As for `NC(=O)c1ccsc1NC(=O)c1ccc([N+](=O)[O-])o1`, the IC50 was inactive: 10.7 µM.
